## AlphaSeq binding of Ab-14 heavy chain variants to a spike HR2 peptide

Values reported by Li et al. 2023, doi:10.1038/s41467-023-39022-2 (FLAb copy).

All variants were tested on one target, the spike HR2 peptide PDVDLGDISGINAS (SARS-CoV-2).

Ab-14 is the parent antibody, in scFv form: VH, then three GGGGS repeats, then VL. The light chain is unchanged in all variants.
VH: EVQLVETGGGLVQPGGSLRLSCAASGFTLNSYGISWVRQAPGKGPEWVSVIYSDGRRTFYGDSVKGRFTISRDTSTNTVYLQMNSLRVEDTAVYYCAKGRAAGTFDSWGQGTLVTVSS
VL: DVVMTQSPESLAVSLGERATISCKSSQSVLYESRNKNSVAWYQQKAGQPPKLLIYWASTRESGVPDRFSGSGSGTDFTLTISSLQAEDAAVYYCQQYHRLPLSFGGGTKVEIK

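Designed CDR sequences, proposed from the first random library and measured here. Several design methods are mixed in this list. Affinity was read by AlphaSeq, a pooled yeast mating assay with surface-displayed partners. After mating in shaken culture at 30 °C for 16 h, diploids were selected and their barcode pairs sequenced. Scores were corrected for input abundance and mapped to Kd with protein pairs of known affinity run in the same pool. Each pool was mated in six replicate cultures.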

Each variant is given by its three heavy chain CDRs, as the data file delimits them; those of the parent are GFTLNSYGIS, VIYSDGRRTFYGDSVK, GRAAGTFDS. Numbers give log10(Kd / nM), so 0 is 1 nM and 3 is 1 µM. Smaller is tighter. Averages over replicates are reported, and they cover detected replicates only. Where no diploid with the target was found in any replicate, the entry reads "not detected": below detection, most likely a poor binder, though not proof of it. Of ten entries with the parent sequence, four were seen in most replicates (averages 0.34 to 2.37), three in one and three in none, so single entries are noisy. Nonspecific signal, from three strains lacking the peptide, appeared in 1% of pairings of all heavy chain designs, centred on 2.08 (5% of these signals below 0.84); values are not corrected for it. In the paper, a design with two or fewer of six values counts as a poor binder. Some sequences occur more than once in the pool; their replicates are pooled. The range of this assay differs from that of the first round, and the authors advise against merging the two.

| CDR-H1 | CDR-H2 | CDR-H3 | mean, log10 nM | detected |
|---|---|---|---|---|
| TFNLNSYGIS | VIYSHGRRTFYQDSVK | GRAAGTFDS | not detected | 0 of 6 |
| GFTLNSYGIS | VIYADGRRTFYGDSVK | GRVAGTFCI | -0.55 | 4 of 6 |
| GFPLNSYGIS | VIYSDGIRTFYSDDVK | GRAAGTFDS | not detected | 0 of 6 |
| GFDLGEYGIS | VIYADGSRVAYAQKVK | GKNDAISSV | not detected | 0 of 6 |
| GFELNSYGIS | VIYSDGRRTFYGDSVK | GKEAGTFDS | 0.53 | 6 of 6 |
| GFTLNDYGIS | VIYSDGRRTFYHDSVK | GRAAGTFDS | 0.29 | 2 of 6 |
| GFDLNEYGIS | VIYADGKRTAYANSVK | GQVAGTFDV | 0.37 | 6 of 6 |
| GFTLNDYGIS | VIYSDGRRTFYGDSVK | WRAAGTFDD | not detected | 0 of 6 |
| GFDLNEYGIS | VIYADGMRKAYADDVK | GTNAGTFDV | -0.25 | 6 of 6 |
| GFTLESYGIS | VIYSDGRRTFYGDSVK | GRAAGTFDS | 1.54 | 7 of 12 |
| GFDLNEYGIS | VIYADGVRTFYTDSVK | GQLAGTFDV | -0.36 | 6 of 6 |
| GFELNSYGIS | VIYSDGRRTFYIDSVK | GRNAGTFDS | 1.44 | 3 of 6 |
| GFGLNQYGIS | VIYSDGRRTFYADSVK | GRAAGTFDS | 0.21 | 6 of 6 |
| MFDLNSYGIS | VIYSDGRRTFYADSVK | GREAGTFDS | -0.02 | 6 of 6 |
| GFTLNSYGIS | VIYSDGRRTFYGDSVD | GRATGWFDS | 1.45 | 1 of 6 |
| GFELNSYGIS | VIYSDGRRTFYHDSVK | GRVAGTFDS | 0.13 | 6 of 6 |
| GDSLEEYGIS | VIYADGKRDVYADSVK | GHISGWFDI | not detected | 0 of 6 |
| GFDLNEYGIS | VIYADGRRTAYSDSVK | GGNAGFFDV | not detected | 0 of 6 |
| GFDLNSYGIS | VIYSDGRRTFYGDSVK | GKMAGTFDS | 0.57 | 6 of 6 |
| GFDLDSYGIS | VIYADGRRKAYHDSVK | GTNGSVSFV | not detected | 0 of 6 |
| GFHLDEFGIS | VIYADGSRSSYADDVK | GEGVNGFVI | 3.96 | 1 of 6 |
| GFDLNEYGIS | VIYADGMRTAYSDSVK | GNIAGTFDV | -0.49 | 6 of 6 |
| GFTLNSYGIS | VIYSDGRRTFYGDSVK | GMAAGTFDG | not detected | 0 of 6 |
| GFTLNSYGIS | VIYSDGKRTFYGDDVK | GRTAGTFDS | 1.19 | 2 of 6 |
| GFDLNEYGIS | VIYADGRRTVYADSVK | GENAGTFDI | -0.31 | 6 of 6 |
| GFNLKECGIS | VIYADGRRQMYANSVK | GEIGGTFLM | not detected | 0 of 6 |
| GFDINEYGIS | VIYADGRRTFYADSVK | GQNAGTFDV | 0.04 | 6 of 6 |
| GFSLNEYGIS | VIYSDGRRTFYVDSVK | GRNAGTFDS | 0.53 | 6 of 6 |
| GFTLNEYGIS | VIYSDGRRTFYTDSVK | GRLAGTFDE | 0.29 | 6 of 6 |
| GFDLNEYGIS | VIYADGRRTAYIDSVK | GHEAGTFDS | 0.35 | 6 of 6 |

Continued, with the values leading:

| mean, log10 nM | detected | CDR-H1 | CDR-H2 | CDR-H3 |
|---|---|---|---|---|
| not detected | 0 of 6 | GFTLNDYGIS | VIYSDGRRTFYRDSVK | GRAALTFIS |
| -0.47 | 6 of 6 | GFDLDEYGIS | VIYADGMRTAYADSVK | GQNAGTFDL |
| not detected | 0 of 6 | GRDLDEYGIS | VIYADGRRQMYAVSFK | GEIGGTFLM |
| 1.32 | 5 of 6 | GFDLNSYGIS | VIYSDGRRTFYGDSVK | GKAAGTFDR |
| not detected | 0 of 6 | GFTLNQYGIS | VIYSSGRRTFYGDKVK | GRHAGTFDT |
| -0.44 | 6 of 6 | GFDLNEYGIS | VIYADGQRTAYADSVK | GEQAGTFDV |
| 1.04 | 6 of 6 | GFTLNSYGIS | VIYSDGQRTFYGDSVK | GQTAGTFDT |
| 0.18 | 6 of 6 | GFTLDSYGIS | VIYADGRRTFYGDSVK | GKAAGTFDS |
| 2.31 | 5 of 6 | GFHLNSYGIS | VIYSDGRRTFYDDSVK | GMLAGTFDS |
| -0.48 | 6 of 6 | GFDLDEYGIS | VIYADGRRTAYADDVK | GENAGTFDI |
| 2.28 | 3 of 6 | HFNLNSYGIS | VIYSDGRRTFYIDSVK | GRQAGTFDS |
| not detected | 0 of 6 | GFTLNSYGIS | VIYSDGRRTFYSDSVK | GRAAGTADS |
| -0.36 | 6 of 6 | GFDLDEYGIS | VIYADGMRTAYADNVK | GQVAGTFDV |
| not detected | 0 of 6 | GFTLNQYPIS | VIYAWGRRTFYSDSVK | GRACGFFDS |
| -0.58 | 6 of 6 | GFDLEDYGIS | VIYADGKRTAYADSVK | GNTAGTFDV |
| 1.83 | 1 of 6 | GFDLDEYGVS | VIYADGERTFYQDKVK | GTHGGTRDI |
| 0.51 | 6 of 6 | GFDLNEYGIS | VIYADGKRTAYADSVK | GGQAGTFDV |
| not detected | 0 of 6 | GDGLSEYGIS | VIYADGFRTAYANDVK | GNAAFGFMV |
| not detected | 0 of 6 | GFTLNSKGIG | VINSDGRRTFYSDSVK | GRTQGTFDS |
| not detected | 0 of 6 | GFTLNSYGIS | VIYADGRRTFYGDSVK | GRQAGTFKI |
| 2.36 | 1 of 6 | GMDLSEYGIS | VIYADGMRTYASDSVK | GDHGGNLLY |
| not detected | 0 of 6 | GNDILSYGIS | VIYSDGRRTQYGDSVK | GNAAGTFDS |
| 0.86 | 6 of 6 | GFTLNSYGIS | VIYSDGRRTAYSDSVK | GHAAGTFDS |
| 1.59 | 5 of 6 | GFDLKEYGIS | VIYADGMRSVYINSFK | GDSAGIINF |
| not detected | 0 of 6 | GFDINEYGVS | VIYADGMRSYYQDKVK | GSLGSLFDV |
| 2.46 | 4 of 6 | GFRLNQYGIS | VIYTDGRRTFYGDKVK | GEVAGTFDS |
| not detected | 0 of 6 | GFTLNDYGIS | VIYSDGRRTFYGDSVK | GRAALLFIS |
| -1.03 | 5 of 6 | GFDLNEYGIS | VIYADGKRTAYSDSVK | GTNAGTFDI |
| -0.40 | 6 of 6 | GFDLNEYGIS | VIYADGSRTAYVDSVK | GNVAGTFDL |
| -0.21 | 6 of 6 | GFDLNEYGIS | VIYADGRRTAYIDSVK | GHAAGTFDE |

The 4 strongest on average among those seen in every replicate, once more:

CDR-H1,CDR-H2,CDR-H3,"mean, log10 nM",detected
GFDLEDYGIS,VIYADGKRTAYADSVK,GNTAGTFDV,-0.58,6 of 6
GFDLNEYGIS,VIYADGMRTAYSDSVK,GNIAGTFDV,-0.49,6 of 6
GFDLDEYGIS,VIYADGRRTAYADDVK,GENAGTFDI,-0.48,6 of 6
GFDLDEYGIS,VIYADGMRTAYADSVK,GQNAGTFDL,-0.47,6 of 6